Test results reported in patent publication US10849847B2, “Compositions and methods for treating rosacea and acne” (Foamix Pharmaceuticals Ltd., priority 2016, dated 2020).

Tests used:
[1] = Doxycycline Monohydrate Compatibility Test; type: physicochemical; conditions: tested after the storage for up to 3 weeks
Procedure: A similar compatibility study was conducted for Doxycycline Hyclate and Doxycycline Monohydrate.
Different compositions of hydrophilic and hydrophobic solvents containing Doxycycline Hyclate (Set I and Set II) and Doxycycline Monohydrate (Set III) were prepared by weighing the antibiotic in a glass vial and shaking overnight with each solvent investigated.
A similar compatibility test was performed on another form of Doxycycline—Doxycycline Monohydrate.

[2] = Doxycycline Hyclate Compatibility Test; type: physicochemical; conditions: tested after the storage for up to 3 weeks

Substance: Cetearyl octanoate
- Compatibility with Doxycycline Monohydrate [1]: Yes
- Compatibility with Doxycycline Hyclate [2]: Yes
- Compatibility with MCH (oily emollients, MCH:excipient 1:250, 25° C. and 40° C., maximum sixty days): compatible
- Compatibility with Minocycline HCl (tested after the storage for up to 3 weeks): Yes
